Data reported in US20040127519A1 (published 2004).

Chains of the proteins cited; added tags and fusions are not shown.
UniProt P49137, whole entry, species assumed: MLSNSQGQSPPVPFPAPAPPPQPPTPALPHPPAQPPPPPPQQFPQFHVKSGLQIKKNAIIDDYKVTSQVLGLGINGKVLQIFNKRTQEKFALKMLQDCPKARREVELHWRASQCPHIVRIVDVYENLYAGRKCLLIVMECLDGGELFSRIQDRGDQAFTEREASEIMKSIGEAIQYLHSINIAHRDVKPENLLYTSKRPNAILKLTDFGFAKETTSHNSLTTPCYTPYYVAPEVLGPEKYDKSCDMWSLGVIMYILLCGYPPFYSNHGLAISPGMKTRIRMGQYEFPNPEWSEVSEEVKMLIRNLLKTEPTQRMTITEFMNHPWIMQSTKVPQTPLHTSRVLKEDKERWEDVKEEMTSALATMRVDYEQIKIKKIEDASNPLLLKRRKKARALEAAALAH

Target: Recombinant MAPKAPK2 (Homo sapiens, UniProt P49137)
Test: Determination of MK-2 IC50 (HSP-peptide phosphorylation, anion exchange resin capture assay)
Type: biochemical
[1] = MK-2 Avg. IC50, Table I, aminocyanopyridine MK-2 inhibitors
[2] = MK-2 Avg. IC50, Table 2, tricyclic aminocyanopyridine MK-2 inhibitors

Row | Structure (SMILES) | IC50 [1] | IC50 [2]
1 | Cc1ccnc(N)c1C#N [Example 97] | 77 µM | 
2 | Cc1ccnc(N)c1C#N [Example 80] | 51.9 µM | 
3 | N#Cc1c(N)nc2c(c1N)Cc1cccc(N)c1O2 [Example 38] |  | 5.01 µM
4 | N#Cc1c(-c2ccccc2F)cc(-c2ccc(O)cc2)nc1N [Example 54] | 26.8 µM | 
5 | Cc1cc(C2CC2)c(C#N)c(N)n1 [Example 82] | 53.7 µM | 
6 | N#Cc1c(N)nc2c(c1-c1cc(F)ccc1F)CCc1[nH]ncc1-2 [Example 41] | 12.8 µM | 
7 | N#Cc1c(N)nc2c(c1N)Cc1cc(N)ccc1S2 [Example 39] |  | 5.6 µM
